Screening data: PubChem BioAssay, National Center for Advancing Translational Sciences (NCATS)
Shown are actives, neighbours in structure and some others; about 13% of the full set was active somewhere.
G9a block: blocks human histone lysine methyltransferase G9a. Q96KQ7. G9a H3K9 monomethylation, AlphaScreen, 2 h. Potency, µM (titrated, usually from 102 µM), inactives show top-dose activity, negative = inhibition, actives largely listed as inhibitors. 350,000 compounds, 8.8% hits. AID 504332; further: potency means the concentration at half of the fitted maximal effect; on the % scale 0 is the no-effect control and ±100 the full control effect; nearly all actives have a fitted effect of over 75% in size
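G9a (20 nM) was preincubated 15 min with compound, then reacted 2 h at room temperature with 500 nM biotin-H3K9 peptide and 20 µM SAM. Monomethyl-H3K9 detected by AlphaScreen using anti-H3K9me1 antibody.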
Sfp inh: inhibitors of Bacillus subtilis Sfp phosphopantetheinyl transferase. Q9F4F7. Biochemical Sfp PPTase activity, qHTS. Potency, µM, inactives show max response, negative = inhibition, most hits filed as inhibitors. 3.5% of 310,000 active. AID 1490; active = well fitted inhibition curve with a large enough effect; inconclusive = small, poorly fitted or top-dose-only effect, or another doubt; inactive = no such curve, though single readings can be large or run the other way;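 also: the enzyme is Sfp with the accession as filed and its product quenches rhodamine fluorescence; potency is read from the fitted curve at half-maximal effect; 0% = enzyme reaction without inhibitor and -100% = no enzyme wells; top concentration of the series not given in the record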
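With Hepes-Na pH 7.6 buffer containing 10 mM MgCl2, Sfp (15 nM) modified BHQ-2-YbbR (12.5 uM) using rhodamine-CoA (5 uM). Two reads 30 minutes apart at 525/598 nm yielded each well's rate.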
LMNA splice mod: LMNA splicing modulation; HeLa LMNA splicing GFP/RFP minigene ratio, 48 h; Potency, µM (titrated, usually from 46.1 µM), without a hit: at the top dose ratio change, negative = inhibition, actives largely listed as inhibitors; 200,000 compounds, 0.01% hits; active means well fitted inhibition curve with a large enough effect in the signal ratio, with a control signal flat, not every such curve was filed as active; inconclusive means small, poorly fitted or top-dose-only effect, or effect the other way, or a change in a side signal; the % refers to the signal ratio; further: potency means the concentration at half of the fitted maximal effect; on the % scale 0 is the no-effect control and ±100 the full control effect
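S3 HeLa stable clones carrying a lamin A-EGFP splicing minigene plus DsRed2 were seeded at 600 cells/well in Opti-MEM with 2% FBS, pin-dosed and incubated 48 h at 37°C. Acumen cytometry (488 nm) gave the GFP/RFP total-intensity ratio.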
JMJD2E inh: inhibitors of human JMJD2E histone demethylase. 230,000 compounds, 1.6% hits. AID 2147. JMJD2E catalytic domain, FDH-coupled NADH fluorescence (FDH is formaldehyde dehydrogenase). Potency, µM (series often up to 57.1 µM), for inactives: at the top dose activity change, negative = inhibition, most hits filed as inhibitors. B2RXH2; active means well fitted inhibition curve with a large enough effect, not every such curve was filed as active; inconclusive means small, poorly fitted or top-dose-only effect, or another doubt; inactive means no such curve, though single readings can be large or run the other way;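 further: potency means the concentration at half of the fitted maximal effect; 0% = wells with enzyme and -100% = buffer wells without enzyme; nearly all actives have a fitted effect of over 50% in size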
ALDH1A1 inh: ALDH1A1 (human) enzyme inhibition | Potency, µM (top dose mostly 75.3 µM), for inactives: at the top dose activity, negative = inhibition, hits mostly inhibitors | Purified ALDH1A1, NADH fluorescence, propionaldehyde substrate | 220,000 compounds, 7.3% hits; active means well fitted inhibition curve with a large enough effect, not every such curve was filed as active; inconclusive means small, poorly fitted or top-dose-only effect, or another doubt; inactive means no such curve, though single readings can be large or run the other way;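 further: potency means the concentration at half of the fitted maximal effect; plate controls were no enzyme wells and a reference inhibitor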
miR-21 FLuc: miR-21 reporter, rising signal. HeLa miR-21 FLuc reporter, luciferase, 48 h. Potency, µM (highest dose often 38.3 µM), for the others: at the highest dose reporter change, positive = more light. 340,000 tested, under 10 active. AID 2288; active = well fitted rising curve with a large enough effect; inconclusive = small, poorly fitted or top-dose-only effect; inactive = no such curve, though single readings can be large or run the other way;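 further: % of control where 0% means no effect; miR-21 action dims this reporter so a rising signal means less miR-21 action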
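Luminescence from a firefly luciferase reporter carrying a miR-21 binding site downstream, stably expressed under a CMV promoter in HeLa cells that make miR-21 endogenously, reports miRNA modulation after 48 h compound exposure up to approximately 40uM final.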
* = called active by the depositor; [ ] = remark or other dose. Unless noted, the call rests on the fitted dose curve; in most records, active means well fitted curve in the direction sought with a large enough effect; inconclusive means small, poorly fitted or top-dose-only effect, or another doubt; inactive means no such curve, though single readings can be large; an effect the other way counts as inactive or inconclusive.

COc1ccc(-c2nc(CS(=O)CC(=O)N3CCCC3)c(C)o2)cc1 (stereo not given) was read as G9a block inconclusive, Sfp inh -23%, LMNA splice mod -16%, JMJD2E inh inconclusive, ALDH1A1 inh inconclusive and miR-21 FLuc 0%.
For CCN1CCN(C(=O)CS(=O)Cc2nc(-c3ccc(OC)cc3)oc2C)CC1 (stereo not given) the results were G9a block 71µM*, Sfp inh -13%, LMNA splice mod -1%, JMJD2E inh inconclusive, ALDH1A1 inh -6% and miR-21 FLuc -8%.
CN1CCOC(=O)/C1=N/Nc1cc(Cl)ccc1Cl was read as G9a block 35µM*, Sfp inh inconclusive, JMJD2E inh 2%, ALDH1A1 inh -4% and miR-21 FLuc -1%.
For COc1ccc([C@@H]2CC=C(C(=O)O)[C@H](c3ccc(Cl)cc3)N2S(=O)(=O)c2ccc(C)cc2)cc1OC the results were G9a block 3%[2.33 µM].
`CCN1C(=O)/C(=C\c2ccc3c(c2)OCO3)C(C(=O)OC)=C1C` gave G9a block 50µM*, Sfp inh -7%, LMNA splice mod 0%, JMJD2E inh -8%, ALDH1A1 inh 1% and miR-21 FLuc -3%.
`CCOC(=O)C1=C(C)N(c2ccc(OC)cc2)C(=O)/C1=C\c1ccc(O)c(OCC)c1` gave G9a block inconclusive, Sfp inh 20µM*, JMJD2E inh -25% and miR-21 FLuc 26%.
Screening COCCCN1C(=O)/C(=C\c2ccc3c(c2)OCO3)C(C(=O)OC)=C1C returned G9a block -21%, Sfp inh 3%, LMNA splice mod 4%[46 µM], JMJD2E inh inconclusive, ALDH1A1 inh -4% and miR-21 FLuc 3%.
Screening CCOC(=O)C1=C(C)N(c2ccc(C)c(C)c2)C(=O)/C1=C\c1ccco1 returned G9a block 35µM*, Sfp inh inconclusive, LMNA splice mod inconclusive, JMJD2E inh -6%, ALDH1A1 inh 0% and miR-21 FLuc -13%.
`CCOc1cc(/C=C2\C(=O)N(Cc3ccc(C)cc3)C(C)=C2C(=O)OC)ccc1O` gave G9a block 8.9µM*, Sfp inh 18µM*, LMNA splice mod -6%, JMJD2E inh 4%, ALDH1A1 inh inconclusive and miR-21 FLuc -6%.
For C=CCOc1cccc(/C=C2\C(=O)N(Cc3ccc(C)cc3)C(C)=C2C(=O)OC)c1 the results were G9a block -9%[59 µM], Sfp inh 11%, LMNA splice mod inconclusive, JMJD2E inh -3%, ALDH1A1 inh inconclusive and miR-21 FLuc -4%.
`CC(C)(C)C1CCc2c(sc3nc(-c4cc5cc(Cl)ccc5oc4=O)[nH]c(=O)c23)C1` (stereo not given) gave G9a block -17%[59 µM], LMNA splice mod 10%[46 µM] and miR-21 FLuc -27%.
For COc1cc(-c2noc(CN3CCN(c4cccc(Cl)c4)CC3)n2)cc(OC)c1OC the results were G9a block -24%[59 µM] and miR-21 FLuc -5%.

Brought forward from above: two compounds; new compounds follow.
`CC(C)(C)C1CCc2c(sc3nc(-c4cc5cc(Cl)ccc5oc4=O)[nH]c(=O)c23)C1` (stereo not given) gave G9a block -17%[59 µM], LMNA splice mod 10%[46 µM] and miR-21 FLuc -27%.
For COc1cc(-c2noc(CN3CCN(c4cccc(Cl)c4)CC3)n2)cc(OC)c1OC the results were G9a block -24%[59 µM] and miR-21 FLuc -5%.
Screening CCN1CCN(C(c2ccc(C)cc2)c2sc3nc(-c4ccco4)nn3c2O)CC1 (stereo not given) returned G9a block 3%[59 µM], LMNA splice mod 14%[46 µM] and miR-21 FLuc -4%.
COC(=O)C1=C(C)N(CCc2ccc(OC)c(OC)c2)C(=O)/C1=C\c1ccc(O)cc1 was read as G9a block 10µM*, Sfp inh -11%, LMNA splice mod -2%, JMJD2E inh 5%, ALDH1A1 inh 25µM* and miR-21 FLuc -6%.
For COC(=O)c1ccccc1S(=O)(=O)N1CCC(C(=O)OCC(=O)c2ccccc2OC)CC1 the results were G9a block 40µM*.
Screening COC(=O)c1ccccc1S(=O)(=O)N1CCC(C(=O)OCc2cccc(OC)c2OC)CC1 returned G9a block 2%.
